By Km is commonly meant the substrate concentration at which the rate is half of its maximum. Broadly, the kcat is the maximal rate divided by the concentration of active sites. Usually kcat/Km stands for the turnover number divided by the Michaelis constant.

This series deals with CC(=O)O. Nature of the series: purified protein. As to conditions: co-substrate ATP, MgCl2 6.6 mM, HEPES 84 mM, 40 °C.

For “EutP (Salmonella enterica subsp. enterica serovar Typhimurium str. LT2)”, the Km came to 700 ± 200 µM, the kcat came to 545 s⁻¹ and the kcat/Km worked out at 778000 M⁻¹ s⁻¹.
In the case of “EutQ (Salmonella enterica subsp. enterica serovar Typhimurium str. LT2)”, the Michaelis constant (Km) turned out to be 700 ± 200 µM, the kcat was found to be 318 s⁻¹ and the kcat/Km turned out to be 454000 M⁻¹ s⁻¹.

Values taken from publication PMC4857615.
